The source made the active and inactive calls.
Columns and labels:
[1] = target: GABA-A receptor; anion channel (Rattus norvegicus) (UniProt O09028+P15431+P18506+P18508+P19969+P20236+P23574+P23576+P28471+P28473+P30191+P62813+P63079+P63138+Q91ZM7+Q9ES14); assay: Displacement of [3H]-GABA from Gamma-aminobutyric acid A receptor binding sites in brain homogenates (relative to 1 mM GABA) at 100 uM; assay type: tissue-based
Summary of the method: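 Male Sprague-Dawley rat brain, frozen, homogenized in 50 mM Tris-citrate (pH 7.1 at 4 °C). Membranes treated with 0.05% Triton X-100 for 30 min at 37 °C and resuspended at 0.5–1.0 mg/mL protein. Incubated with 8 nM [3H]GABA for 5 min at 4 °C, stopped by centrifugation, and counted by scintillation. Test concentration 100 µM. Expressed as percent of the inhibition given by 1 mM GABA. Mean of two experiments, each in triplicate.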

By UniProt entry, the sequences of proteins in these tests, tags left out. Where a name states a change or a piece, a line headed by the entry shows the natural chain unless it says otherwise.
UniProt O09028: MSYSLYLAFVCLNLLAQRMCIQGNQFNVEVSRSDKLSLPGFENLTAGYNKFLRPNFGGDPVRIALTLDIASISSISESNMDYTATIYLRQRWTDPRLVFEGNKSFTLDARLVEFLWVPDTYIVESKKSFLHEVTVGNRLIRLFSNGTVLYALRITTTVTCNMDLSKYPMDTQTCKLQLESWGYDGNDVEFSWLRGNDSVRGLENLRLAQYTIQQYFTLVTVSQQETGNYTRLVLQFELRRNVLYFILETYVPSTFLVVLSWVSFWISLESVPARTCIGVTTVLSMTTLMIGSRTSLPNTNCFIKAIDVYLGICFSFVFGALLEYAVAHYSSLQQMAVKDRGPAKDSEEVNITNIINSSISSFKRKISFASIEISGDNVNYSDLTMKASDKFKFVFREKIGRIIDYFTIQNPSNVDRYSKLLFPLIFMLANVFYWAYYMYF
UniProt P15431: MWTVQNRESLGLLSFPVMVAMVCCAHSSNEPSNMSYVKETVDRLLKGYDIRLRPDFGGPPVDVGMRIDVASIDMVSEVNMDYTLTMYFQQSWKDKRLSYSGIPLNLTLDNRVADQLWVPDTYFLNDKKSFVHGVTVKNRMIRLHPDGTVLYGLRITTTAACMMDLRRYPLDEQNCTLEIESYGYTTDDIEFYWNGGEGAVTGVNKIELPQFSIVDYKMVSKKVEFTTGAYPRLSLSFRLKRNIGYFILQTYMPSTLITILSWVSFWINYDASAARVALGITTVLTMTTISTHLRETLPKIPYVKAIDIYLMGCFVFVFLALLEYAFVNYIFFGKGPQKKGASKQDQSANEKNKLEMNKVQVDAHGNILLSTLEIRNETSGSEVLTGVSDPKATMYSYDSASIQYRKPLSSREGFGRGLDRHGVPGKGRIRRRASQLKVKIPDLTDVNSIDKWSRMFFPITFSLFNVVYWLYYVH
UniProt P18506: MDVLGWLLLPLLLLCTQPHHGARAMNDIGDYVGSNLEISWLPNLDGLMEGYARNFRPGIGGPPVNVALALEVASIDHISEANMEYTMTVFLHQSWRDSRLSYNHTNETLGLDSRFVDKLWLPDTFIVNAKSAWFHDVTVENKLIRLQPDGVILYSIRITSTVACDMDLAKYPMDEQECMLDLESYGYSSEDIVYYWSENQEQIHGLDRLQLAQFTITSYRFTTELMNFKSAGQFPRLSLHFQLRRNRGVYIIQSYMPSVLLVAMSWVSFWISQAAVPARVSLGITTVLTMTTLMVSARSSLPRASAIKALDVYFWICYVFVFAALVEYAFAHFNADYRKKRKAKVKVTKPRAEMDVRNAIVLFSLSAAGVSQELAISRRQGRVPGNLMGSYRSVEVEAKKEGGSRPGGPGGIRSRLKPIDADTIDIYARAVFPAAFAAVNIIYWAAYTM
UniProt P18508: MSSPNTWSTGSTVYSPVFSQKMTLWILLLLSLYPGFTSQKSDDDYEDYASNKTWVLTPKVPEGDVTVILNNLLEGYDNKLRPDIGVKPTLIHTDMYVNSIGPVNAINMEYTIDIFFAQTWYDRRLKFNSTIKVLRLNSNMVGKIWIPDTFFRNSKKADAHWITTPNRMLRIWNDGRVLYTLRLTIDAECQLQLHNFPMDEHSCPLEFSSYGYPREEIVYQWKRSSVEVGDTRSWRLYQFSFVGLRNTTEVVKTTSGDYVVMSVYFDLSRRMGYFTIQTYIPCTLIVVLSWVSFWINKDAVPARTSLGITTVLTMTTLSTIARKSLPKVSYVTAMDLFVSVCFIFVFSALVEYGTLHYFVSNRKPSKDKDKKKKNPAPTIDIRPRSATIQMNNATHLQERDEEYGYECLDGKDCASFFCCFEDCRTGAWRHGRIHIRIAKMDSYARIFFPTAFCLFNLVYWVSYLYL
UniProt P19969: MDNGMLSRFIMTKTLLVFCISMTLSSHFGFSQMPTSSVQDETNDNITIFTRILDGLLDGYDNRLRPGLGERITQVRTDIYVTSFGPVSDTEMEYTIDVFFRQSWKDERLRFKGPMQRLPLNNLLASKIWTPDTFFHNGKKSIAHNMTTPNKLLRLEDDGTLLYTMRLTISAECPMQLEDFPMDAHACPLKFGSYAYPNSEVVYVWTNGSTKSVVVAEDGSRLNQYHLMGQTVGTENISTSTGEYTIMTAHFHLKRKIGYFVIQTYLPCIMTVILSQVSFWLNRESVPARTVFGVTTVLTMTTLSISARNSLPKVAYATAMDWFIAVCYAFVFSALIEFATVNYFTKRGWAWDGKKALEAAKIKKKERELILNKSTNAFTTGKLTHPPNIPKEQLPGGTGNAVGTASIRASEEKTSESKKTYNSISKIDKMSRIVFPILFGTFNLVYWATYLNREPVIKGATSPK
UniProt P20236: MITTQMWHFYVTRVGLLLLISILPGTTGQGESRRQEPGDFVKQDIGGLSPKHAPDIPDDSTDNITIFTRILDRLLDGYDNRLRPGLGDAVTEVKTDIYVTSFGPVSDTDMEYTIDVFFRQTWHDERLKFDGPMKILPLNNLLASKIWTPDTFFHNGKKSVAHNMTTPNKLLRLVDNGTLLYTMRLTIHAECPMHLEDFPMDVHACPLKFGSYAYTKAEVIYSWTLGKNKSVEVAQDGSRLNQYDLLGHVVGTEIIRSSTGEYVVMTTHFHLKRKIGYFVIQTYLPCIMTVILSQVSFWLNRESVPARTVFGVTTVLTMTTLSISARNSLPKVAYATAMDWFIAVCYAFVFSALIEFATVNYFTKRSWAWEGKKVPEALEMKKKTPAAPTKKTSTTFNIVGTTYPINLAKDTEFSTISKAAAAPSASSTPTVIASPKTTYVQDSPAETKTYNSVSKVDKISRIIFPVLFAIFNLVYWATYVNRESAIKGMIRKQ
UniProt P23574: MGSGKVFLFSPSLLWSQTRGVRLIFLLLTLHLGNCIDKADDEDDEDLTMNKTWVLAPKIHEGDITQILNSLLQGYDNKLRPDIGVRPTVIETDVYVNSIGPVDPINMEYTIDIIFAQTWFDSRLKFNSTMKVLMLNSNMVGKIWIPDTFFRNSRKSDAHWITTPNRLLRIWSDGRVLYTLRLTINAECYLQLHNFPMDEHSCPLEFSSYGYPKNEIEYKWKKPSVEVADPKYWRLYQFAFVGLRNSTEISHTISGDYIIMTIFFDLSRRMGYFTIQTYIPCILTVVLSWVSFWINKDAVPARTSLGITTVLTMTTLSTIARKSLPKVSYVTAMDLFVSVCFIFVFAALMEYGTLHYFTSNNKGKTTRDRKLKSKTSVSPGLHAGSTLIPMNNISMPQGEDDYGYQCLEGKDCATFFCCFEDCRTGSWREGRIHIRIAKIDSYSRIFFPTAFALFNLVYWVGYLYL
UniProt P28471: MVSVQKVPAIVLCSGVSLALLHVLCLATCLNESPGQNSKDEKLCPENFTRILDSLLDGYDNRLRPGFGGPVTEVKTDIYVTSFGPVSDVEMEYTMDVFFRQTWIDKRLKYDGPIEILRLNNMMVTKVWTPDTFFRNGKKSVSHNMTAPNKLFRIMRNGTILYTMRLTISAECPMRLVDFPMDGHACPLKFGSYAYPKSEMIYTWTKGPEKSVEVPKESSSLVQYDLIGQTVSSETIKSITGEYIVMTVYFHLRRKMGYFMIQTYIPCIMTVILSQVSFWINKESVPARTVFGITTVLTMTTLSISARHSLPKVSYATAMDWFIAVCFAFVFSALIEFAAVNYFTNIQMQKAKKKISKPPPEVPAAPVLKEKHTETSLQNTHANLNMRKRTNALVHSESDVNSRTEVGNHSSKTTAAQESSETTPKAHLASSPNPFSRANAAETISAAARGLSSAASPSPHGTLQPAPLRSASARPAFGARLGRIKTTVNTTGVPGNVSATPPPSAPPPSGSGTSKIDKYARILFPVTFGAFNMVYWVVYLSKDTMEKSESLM
UniProt P30191: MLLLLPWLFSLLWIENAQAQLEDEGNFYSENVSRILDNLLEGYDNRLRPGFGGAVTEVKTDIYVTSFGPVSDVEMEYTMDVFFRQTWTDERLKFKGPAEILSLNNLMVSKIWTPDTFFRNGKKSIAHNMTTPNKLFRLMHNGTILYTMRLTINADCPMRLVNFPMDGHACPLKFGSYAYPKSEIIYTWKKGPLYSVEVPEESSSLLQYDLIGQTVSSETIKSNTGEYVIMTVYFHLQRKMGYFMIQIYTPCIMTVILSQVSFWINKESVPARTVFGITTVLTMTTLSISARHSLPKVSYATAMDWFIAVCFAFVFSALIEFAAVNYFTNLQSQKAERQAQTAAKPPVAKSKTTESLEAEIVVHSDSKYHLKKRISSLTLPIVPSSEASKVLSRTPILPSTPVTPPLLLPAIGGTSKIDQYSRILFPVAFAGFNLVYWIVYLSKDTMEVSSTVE
UniProt P62813: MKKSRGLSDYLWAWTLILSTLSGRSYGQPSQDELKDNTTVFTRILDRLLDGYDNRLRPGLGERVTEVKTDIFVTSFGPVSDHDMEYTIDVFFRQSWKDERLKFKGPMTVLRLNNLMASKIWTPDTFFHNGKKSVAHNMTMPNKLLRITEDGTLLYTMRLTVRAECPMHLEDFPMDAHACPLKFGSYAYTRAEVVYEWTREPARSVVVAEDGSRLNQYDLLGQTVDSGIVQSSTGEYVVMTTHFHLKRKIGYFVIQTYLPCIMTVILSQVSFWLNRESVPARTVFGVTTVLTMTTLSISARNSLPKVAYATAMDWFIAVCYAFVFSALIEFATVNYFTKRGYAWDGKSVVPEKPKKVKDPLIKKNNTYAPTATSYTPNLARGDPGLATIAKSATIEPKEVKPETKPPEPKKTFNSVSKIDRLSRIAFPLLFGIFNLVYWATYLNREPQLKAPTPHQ
UniProt P63079: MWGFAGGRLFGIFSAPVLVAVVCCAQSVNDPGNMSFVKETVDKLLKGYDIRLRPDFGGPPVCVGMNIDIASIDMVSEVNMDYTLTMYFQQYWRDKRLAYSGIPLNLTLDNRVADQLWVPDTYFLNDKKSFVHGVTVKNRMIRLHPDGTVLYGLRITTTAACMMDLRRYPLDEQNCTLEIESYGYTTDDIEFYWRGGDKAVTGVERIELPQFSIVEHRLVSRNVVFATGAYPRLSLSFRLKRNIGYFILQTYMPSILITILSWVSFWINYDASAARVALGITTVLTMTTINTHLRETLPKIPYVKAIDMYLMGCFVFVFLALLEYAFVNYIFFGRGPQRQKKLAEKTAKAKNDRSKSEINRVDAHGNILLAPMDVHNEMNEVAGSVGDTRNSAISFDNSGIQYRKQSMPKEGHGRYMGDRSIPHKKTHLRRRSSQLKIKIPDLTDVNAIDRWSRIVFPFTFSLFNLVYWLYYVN
UniProt P63138: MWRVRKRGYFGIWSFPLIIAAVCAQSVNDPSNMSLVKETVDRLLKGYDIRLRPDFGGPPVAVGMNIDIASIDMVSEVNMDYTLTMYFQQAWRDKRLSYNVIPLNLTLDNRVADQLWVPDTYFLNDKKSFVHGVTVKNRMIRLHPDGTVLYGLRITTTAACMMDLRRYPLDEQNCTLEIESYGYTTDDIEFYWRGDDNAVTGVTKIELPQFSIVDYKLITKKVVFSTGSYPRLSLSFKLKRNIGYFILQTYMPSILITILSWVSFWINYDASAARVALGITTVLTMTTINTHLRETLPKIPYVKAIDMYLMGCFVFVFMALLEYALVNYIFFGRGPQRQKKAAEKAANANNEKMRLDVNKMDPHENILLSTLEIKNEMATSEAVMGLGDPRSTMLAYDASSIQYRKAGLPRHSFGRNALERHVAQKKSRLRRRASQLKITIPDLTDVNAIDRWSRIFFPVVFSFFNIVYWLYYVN
UniProt Q9ES14: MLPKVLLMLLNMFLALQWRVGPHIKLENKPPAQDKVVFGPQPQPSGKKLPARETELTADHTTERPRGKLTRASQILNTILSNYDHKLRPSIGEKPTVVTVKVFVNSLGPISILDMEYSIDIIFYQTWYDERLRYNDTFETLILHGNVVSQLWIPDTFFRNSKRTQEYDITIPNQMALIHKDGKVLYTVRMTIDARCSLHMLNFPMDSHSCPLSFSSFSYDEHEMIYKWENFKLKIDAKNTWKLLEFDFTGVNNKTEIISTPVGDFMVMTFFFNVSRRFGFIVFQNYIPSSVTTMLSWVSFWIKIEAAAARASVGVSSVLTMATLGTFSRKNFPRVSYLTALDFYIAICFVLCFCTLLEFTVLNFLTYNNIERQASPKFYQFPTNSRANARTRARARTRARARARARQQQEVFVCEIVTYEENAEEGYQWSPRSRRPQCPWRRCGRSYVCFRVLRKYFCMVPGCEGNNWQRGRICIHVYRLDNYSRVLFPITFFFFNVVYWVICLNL

Mus musculus [2] = assay: In vivo anticonvulsant activity against pentylene tetrazole seizure threshold(SMC) in mice 0.5 hr after sc administration; active at 300 mg/kg
Mus musculus [3] = assay: In vivo anticonvulsant activity against pentylene tetrazole seizure threshold(SMC) in mice 0.5 hr after sc administration; inactive at 600 mg/kg; assay type: functional, organism-based; parameters: dose 600 mg/kg
Mus musculus [4] = assay: In vivo anticonvulsant activity against electric shock induced seizures(MES) in mice 0.5 hr after ip administration; active at 600 mg/kg; assay type: functional, organism-based; parameters: dose 600 mg/kg
Mus musculus [5] = assay: In vivo anticonvulsant activity against electric shock induced seizures(MES) in mice 4 hr after ip administration; no activity observed at 600 mg/kg.

CCOP(=O)(NCCN)OCC
inhibition [1]: < 10%
Anticonvulsant activity (Mus musculus [2]): Active
Anticonvulsant activity (Mus musculus [3]): inactive
Anticonvulsant activity (Mus musculus [4]): Active
Anticonvulsant activity (Mus musculus [5]): inactive
